Protein sequences, listed by entry. Tags and fused reporters are not part of them. Residues count along the entry.
UniProt P30926, 22-498: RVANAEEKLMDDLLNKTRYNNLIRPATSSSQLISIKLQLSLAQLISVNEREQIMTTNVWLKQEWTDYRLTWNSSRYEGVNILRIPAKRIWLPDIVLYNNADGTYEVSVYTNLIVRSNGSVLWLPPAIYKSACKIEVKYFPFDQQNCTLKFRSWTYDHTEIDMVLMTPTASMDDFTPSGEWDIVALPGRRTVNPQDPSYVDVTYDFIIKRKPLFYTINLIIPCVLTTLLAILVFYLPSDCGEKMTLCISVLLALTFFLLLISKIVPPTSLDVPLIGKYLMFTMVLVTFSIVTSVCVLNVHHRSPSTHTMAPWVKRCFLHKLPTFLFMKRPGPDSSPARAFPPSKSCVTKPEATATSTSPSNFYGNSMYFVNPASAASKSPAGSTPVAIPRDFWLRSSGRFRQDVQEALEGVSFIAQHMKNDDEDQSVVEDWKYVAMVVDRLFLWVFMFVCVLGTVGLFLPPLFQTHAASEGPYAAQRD
UniProt P32297, 32-505: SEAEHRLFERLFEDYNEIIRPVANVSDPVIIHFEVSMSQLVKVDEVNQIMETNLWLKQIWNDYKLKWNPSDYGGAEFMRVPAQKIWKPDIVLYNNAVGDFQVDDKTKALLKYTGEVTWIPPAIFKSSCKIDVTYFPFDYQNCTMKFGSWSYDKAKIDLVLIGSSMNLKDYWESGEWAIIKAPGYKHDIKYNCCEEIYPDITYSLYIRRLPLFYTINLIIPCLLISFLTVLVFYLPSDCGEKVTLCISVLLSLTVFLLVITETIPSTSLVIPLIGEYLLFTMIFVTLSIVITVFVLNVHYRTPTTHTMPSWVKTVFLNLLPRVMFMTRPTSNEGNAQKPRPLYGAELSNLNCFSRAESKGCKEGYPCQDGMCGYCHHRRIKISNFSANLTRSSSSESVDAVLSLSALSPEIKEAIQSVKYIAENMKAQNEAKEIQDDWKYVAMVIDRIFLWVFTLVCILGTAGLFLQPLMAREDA
UniProt P30532, 23-468: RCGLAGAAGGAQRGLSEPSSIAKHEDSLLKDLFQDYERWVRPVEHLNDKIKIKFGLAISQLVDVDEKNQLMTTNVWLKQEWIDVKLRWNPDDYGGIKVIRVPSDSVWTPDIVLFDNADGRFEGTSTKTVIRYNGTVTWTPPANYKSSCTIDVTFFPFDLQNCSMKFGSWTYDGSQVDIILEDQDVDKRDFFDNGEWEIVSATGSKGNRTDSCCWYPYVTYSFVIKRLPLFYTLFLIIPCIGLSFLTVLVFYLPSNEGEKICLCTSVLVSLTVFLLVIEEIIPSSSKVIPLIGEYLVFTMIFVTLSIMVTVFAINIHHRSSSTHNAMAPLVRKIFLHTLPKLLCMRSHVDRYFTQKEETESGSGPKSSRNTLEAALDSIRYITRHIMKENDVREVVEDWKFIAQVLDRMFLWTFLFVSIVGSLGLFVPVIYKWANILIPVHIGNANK

In PMC4991607 (Assay and Drug Development Technologies, 2016):

Key:
[1] = target: human α3β4 nicotinic acetylcholine receptor (Homo sapiens, UniProt P30926+P32297); test: IonWorks Barracuda (IWB) population patch clamp, antagonist mode, α3β4-CHO; format: cell-based
[2] = target: human α3β4α5 nicotinic acetylcholine receptor (Homo sapiens, UniProt P30532+P30926+P32297); test: IWB population patch clamp, antagonist mode, α3β4α5-CHO clones; format: cell-based

IC50 [1]: 2700 ± 500 nM | IC50 [2]: 1100 ± 400 nM
Compound: CNC1(C)C2CCC(C2)C1(C)C (centres unmarked) [Mecamylamine, mecamylamine]
